# Yeast mating assay B: variants of the scFv Ab-14

Reference: Li et al. 2023, doi:10.1038/s41467-023-39022-2. File: FLAb, binding data.

Target peptide (SARS-CoV-2 spike, HR2 region): PDVDLGDISGINAS

Each scFv is VH, a (GGGGS)3 linker, VL, as in the parent Ab-14, and differs from it in the CDRs of the heavy chain only.
VH: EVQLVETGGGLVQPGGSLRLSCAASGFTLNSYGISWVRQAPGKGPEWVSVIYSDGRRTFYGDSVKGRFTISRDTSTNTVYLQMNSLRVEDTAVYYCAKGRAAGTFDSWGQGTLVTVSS
VL: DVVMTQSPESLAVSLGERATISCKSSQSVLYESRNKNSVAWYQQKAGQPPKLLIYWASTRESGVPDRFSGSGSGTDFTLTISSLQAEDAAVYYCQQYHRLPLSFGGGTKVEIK

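This is the validation round: designs drawn from the data on random variants, tested in the same kind of assay. Group labels follow the data file (Ctrl: baseline library sampled from a position-specific scoring matrix, with some repeated check sequences; Rand: our label for a block that the file lists under HC and that is probably the random mutants of the ten best first-round binders; En: ensemble of fine-tuned language models; GP: Gaussian process model; GPLM: also part of the Gaussian process libraries; HC: hill climbing; Gen: genetic algorithm; Gibbs: Gibbs sampling; a sequence that several methods proposed may carry one label only). AlphaSeq pools MATa yeast showing the antibodies with MATalpha yeast showing the peptide. The frequency of each diploid, read from paired DNA barcodes, reflects how well the two displayed proteins bind. Scores were corrected for input abundance and mapped to Kd with protein pairs of known affinity run in the same pool. Mating was done six times.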

Variants are written as CDR1, CDR2 and CDR3 of the heavy chain (limits as in the source). Parent: GFTLNSYGIS, VIYSDGRRTFYGDSVK, GRAAGTFDS. Numbers give log10(Kd / nM), so 0 is 1 nM and 3 is 1 µM. Smaller is tighter. Averages over replicates are reported, and they cover detected replicates only. "no signal" means that the variant was in the library but no mating with the target was seen in any replicate; the authors take this as a sign of poor binding, and no number exists. The authors averaged sequences with at least three values out of six and counted those with two or fewer as poor binders. Nonspecific signal, from three strains lacking the peptide, appeared in 1% of pairings of all heavy chain designs, centred on 2.08 (5% of these signals below 0.84); values are not corrected for it. Values of this round are not directly comparable with the first-round values of the same sequences.

CDR-H1,CDR-H2,CDR-H3,group,"log10 Kd (nM), mean",detected
GENINEYGIS,VIYADGRRTAYAEDVK,GQAGGIIDV,En_Gibbs,3.23,1 of 6
GFGLNSYGIS,VIYSDGRRTFYSDSVK,GRTAGTFDS,GPLM_Gen,0.39,6 of 6
GFDLNEYGIS,VIYADGMRTAYTDSVK,GNVAGTFDV,En_Gen,-0.16,6 of 6
GLRLNSYGIS,VIYSDGRRTFYGDSVK,RRAVGTFDS,Ctrl,no signal,0 of 6
GFSLNNYGIS,VIYSDGKRTFYGDSVK,GQAAGTFDS,GPLM_Gen,0.44,6 of 6
GFTLNDYGIS,VIYSDGRRTFYKDSVK,GRQAGTFIS,GP_HC,no signal,0 of 6
GFDLNEYGIS,VIYADGRRTFYDDSVK,GKVAGTFDQ,En_HC,-0.32,6 of 6
GFSLNEYGIS,VIYADGRRTFYADSVK,GNVAGTFDQ,En_HC,-0.28,6 of 6
GFDLNSYGIS,VIYSDGRRTFYQDSVK,GEAAGTFDN,GP_Gibbs,no signal,0 of 6
GFDLDEYGIS,VIYADGMRTAYADNVK,GQVAGTFDI,En_Gen,-0.11,6 of 6
GFDLDEYGIS,VIYADGQRTAYADSVK,GNQAGTFDT,En_Gen,0.67,6 of 6
GFTLNSYGIS,VIYSDGRRTFYTDSVK,GMMAGTFDS,GP_HC,1.06,6 of 6
GMDLNEYGIS,VIYADGRRTSYINQVK,GKQSVIVSH,En_Gibbs,no signal,0 of 6
GFTLNSYGIS,VIYSDGMRTSYGDSVK,GREAGTFDS,Ctrl,no signal,0 of 6
GFDLNEYGIS,VIYADGRRTFYTDSVK,GQTAGTFDV,En_HC,-0.26,6 of 6
GFSLNSYGIS,VIYSDGYRTFYGDSVK,GRTAGTFDS,GPLM_Gen,1.16,5 of 6
GKDLQEYGVS,VIYADGMRASYADSVK,GNHAGYLDK,En_Gibbs,no signal,0 of 6
GFSIDEYGIS,VIYADGVRTAVDPSFK,GQMAAFFDE,En_Gibbs,no signal,0 of 6
GFTLNSYGIS,VIYSDGQRTFYGDSVK,GRYAGTFDS,Ctrl,no signal,0 of 6
GFNLNEYGIS,VIYADGKRSFYSDSVK,GEAAGTFDV,En_HC,-0.57,6 of 6
GFSLNSYGIS,VIYADGRRTFYGDNVK,GRAAGTNDS,GP_HC,no signal,0 of 6
GFTLDEYGIS,VIYADGTRTTYIDDVK,GQMGGNGYV,En_Gibbs,4.12,1 of 6
GFDLNEYGIS,VIYADGRRTAYIDSVK,GNQAGTFDT,En_HC,no signal,0 of 6
GFTLNEYGIS,VIYSDGRRTFYWDSVK,GRAAVTFDK,GP_HC,no signal,0 of 6
GFDLNEYGIS,VIYADGVRTAYADSVK,GHNAGTFDI,En_Gen,0.16,6 of 6
GFTLNSYGIS,VIYSDGRRTFYSDSVK,GRAGVTFDV,GPLM_HC,no signal,0 of 6

The remaining entries, values ahead:

"log10 Kd (nM), mean",detected,CDR-H1,CDR-H2,CDR-H3,group
1.25,5 of 6,KFTLNSYGIS,VIYADGRRTFYGDSVK,GQAAGTFDS,GPLM_Gen
no signal,0 of 6,GDTLNSYGIS,VIYSDGRRTFYGDSVK,GRPAGTFKS,Ctrl
no signal,0 of 6,GDSLAEYGIS,VIYADGSRSKYADAFK,GQVAGYFGV,En_Gibbs
0.55,6 of 6,GFSLNSYGIS,VIYSDGRRTFYGDNVK,GQAAGTFDS,GPLM_Gen
-0.06,6 of 6,GFDLNEYGIS,VIYADGQRTAYSDSVK,GENAGTFDL,En_Gen
-1.12,1 of 6,WFSLNEYGIS,VIYSDGRRTFYADSVK,GRTAGTFDS,GPLM_Gen
no signal,0 of 6,GQDINEYGIS,VIYADGMRKQYAQNVK,GENTFSVQI,En_Gibbs
-0.63,6 of 6,GFDLDEYGIS,VIYADGKRTAYVDSVK,GNVAGTFDQ,En_Gen
no signal,0 of 6,GYDMEDYGIS,VIYADGSRQAYHDNFK,GELAGTFEM,En_Gibbs
-0.46,6 of 6,GFSLNSYGIS,VIYSDGRRTFYGDSVK,GKEAGTFDQ,GP_Gibbs
1.19,2 of 6,GFDIEEYGIS,VIYADGSRTSYSDSVK,SGYTFNMDL,En_Gibbs
0.57,6 of 6,GFDLEDYGIS,VIYADGKRTAYAQKFK,GTIGGTFVD,En_Gibbs
no signal,0 of 6,GFNLMEYGIS,VIYADGTRTYYAGTVK,GELKGTFVD,En_Gibbs
0.43,6 of 6,GFSLNEYGIS,VIYSDGRRTFYDDSVK,GRAAGTFDS,GPLM_Gen
-1.76,3 of 6,GFDLNSYGIS,VIYSDGRRTFYQDRVK,GEAAGTFDN,GP_Gibbs
-0.46,6 of 6,GFDLNEYGIS,VIYADGMRTFYADSVK,GEIAGTFDV,En_HC
1.79,4 of 6,GFTLNSYGIS,VIYSDGRRTFYGDSVK,GNAAGTFNT,Ctrl
no signal,0 of 6,GFTLNQQGIS,VIYSDGRRTFYGDEVK,GRAAGTFDS,Ctrl
no signal,0 of 6,GDNLDEYGIS,VIYADGHRTAYSDPVK,GEYGVTVGQ,En_Gibbs
no signal,0 of 6,GFTNNDYGIS,VIYSDGRRTFYGDSVK,GRAAGTFDS,Ctrl
2.29,2 of 6,GYTLNEYGIS,VIYSDGRRTMYSDSVK,GRAAGTFDS,GP_HC
-0.52,6 of 6,GFNLNEYGIS,VIYADGMRTFYADSVK,GEVAGTFDV,En_HC
no signal,0 of 6,GFTLNSYGIS,VIYRDGRRTFYGDSVK,GRASGTFDS,Ctrl
0.09,6 of 6,GFTLNEYGIS,VIYSDGRRTFYADDVK,GRFAGTFDS,GP_HC
no signal,0 of 6,GFTLNMYGIS,VIYSDGRRTFYGDSVK,GREAGTKPS,Ctrl
2.20,4 of 6,GFTLNSYGIS,VIYSDGKRTFYGDSVK,GRAKGTFDS,Ctrl
1.99,1 of 6,WFTLNQYGIS,VIYSDGRRTFYSKSVK,GRAAGFFDS,Rand

Excerpt, the final 6 entries:

CDR-H1,CDR-H2,CDR-H3,group,"log10 Kd (nM), mean",detected
GFNLNEYGIS,VIYADGMRTFYADSVK,GEVAGTFDV,En_HC,-0.52,6 of 6
GFTLNSYGIS,VIYRDGRRTFYGDSVK,GRASGTFDS,Ctrl,no signal,0 of 6
GFTLNEYGIS,VIYSDGRRTFYADDVK,GRFAGTFDS,GP_HC,0.09,6 of 6
GFTLNMYGIS,VIYSDGRRTFYGDSVK,GREAGTKPS,Ctrl,no signal,0 of 6
GFTLNSYGIS,VIYSDGKRTFYGDSVK,GRAKGTFDS,Ctrl,2.20,4 of 6
WFTLNQYGIS,VIYSDGRRTFYSKSVK,GRAAGFFDS,Rand,1.99,1 of 6